Counter-ions that a name gives are not always drawn. Like-named read-outs stand apart in the source and are kept apart here.
Experiments:
[1] = mice, 3 mg/kg s.c.
β1-ADR = biological target: T1, β1-ADR (Rattus norvegicus, UniProt P18090); settings: prolonged administration, rat ventricles; cited from earlier work
T1 construct: an animal study using rat ventricles; host or cells: rat ventricles (endogenous receptor)

Sequences of proteins named here, by UniProt entry; tags and fusion partners are left off.
UniProt P18090, whole entry: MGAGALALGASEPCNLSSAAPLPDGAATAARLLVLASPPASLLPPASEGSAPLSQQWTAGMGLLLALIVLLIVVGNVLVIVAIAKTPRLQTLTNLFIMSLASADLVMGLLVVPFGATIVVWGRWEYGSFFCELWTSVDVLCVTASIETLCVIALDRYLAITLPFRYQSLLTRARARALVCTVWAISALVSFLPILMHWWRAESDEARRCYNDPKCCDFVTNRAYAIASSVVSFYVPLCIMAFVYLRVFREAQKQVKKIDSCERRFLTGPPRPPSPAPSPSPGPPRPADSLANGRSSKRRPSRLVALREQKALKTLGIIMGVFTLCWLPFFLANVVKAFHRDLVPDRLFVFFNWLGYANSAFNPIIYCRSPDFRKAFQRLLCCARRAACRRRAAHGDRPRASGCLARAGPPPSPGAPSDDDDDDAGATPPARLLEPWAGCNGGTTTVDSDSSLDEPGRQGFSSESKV

wild type mice = assay: Cardiac safety after chronic treatment in wild type mice; type: in vivo; settings: 3 months, vs vehicle

P/B ratio ([1]; 30 minutes): 1.1 ± 0.4
P/B ratio ([1]; 1 hour): 0.4 ± 0.04
P/B ratio ([1]; 2 hours): 0.04 ± 0.01
Structure (SMILES): O=C(NCCNCC(O)COc1ccc(O)cc1)N1CCOCC1 (racemic) [xamoterol, 1-p-Hydroxyphenoxy-3-beta-(morpholinocarbonamido)ethyl-amino-2-propanol hydrogen fumarate]
β1-ADR density or adenylate cyclase coupling efficiency (β1-ADR): did not induce reduction
Left ventricular to right ventricular (LV/RV) ratio (wild type mice): did not show significant difference
